Measurements taken from US20250000987A1, “RETINOIC ACID COMPOUND, PHARMACEUTICAL COMPOSITION THEREOF AND USE THEREOF” (Mastery Biotech CO., LTD., priority 2022, published 2025).

Biological target: SARS-COV-2 PLpro (Severe acute respiratory syndrome coronavirus 2, UniProt P0DTD1)
Assay: biochemical
Conditions: read-out: Inhibition percentage (%)

Compound: CC1=C(/C=C/C(C)=C/C=C/C(C)=C\C(=O)O)C(C)(C)CCC1 [isotretinoin, 13-cis-retinoic acid, reference compound]
- inhibition at 50 µM: 20.9 ± 1.24%
